Drawing on BindingDB's records for doi:10.1016/0014-2999(89)90363-4 (Novo Industri, 1989), this text covers Ki for three compounds.

By UniProt entry, the sequences of proteins in these tests, tags left out.
UniProt P14842, whole entry: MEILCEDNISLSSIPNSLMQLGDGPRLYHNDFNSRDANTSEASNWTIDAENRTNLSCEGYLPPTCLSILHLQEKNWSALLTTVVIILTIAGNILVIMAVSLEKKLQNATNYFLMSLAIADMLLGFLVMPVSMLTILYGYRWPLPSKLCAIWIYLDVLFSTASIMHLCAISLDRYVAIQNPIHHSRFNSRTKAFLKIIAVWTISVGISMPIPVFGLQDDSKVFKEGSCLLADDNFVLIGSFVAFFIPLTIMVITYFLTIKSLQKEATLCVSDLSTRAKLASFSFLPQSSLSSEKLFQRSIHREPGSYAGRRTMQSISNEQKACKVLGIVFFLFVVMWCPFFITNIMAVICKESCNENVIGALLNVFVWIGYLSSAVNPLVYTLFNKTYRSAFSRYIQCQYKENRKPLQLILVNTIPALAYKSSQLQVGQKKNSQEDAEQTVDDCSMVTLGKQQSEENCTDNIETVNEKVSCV
UniProt P31652, whole entry: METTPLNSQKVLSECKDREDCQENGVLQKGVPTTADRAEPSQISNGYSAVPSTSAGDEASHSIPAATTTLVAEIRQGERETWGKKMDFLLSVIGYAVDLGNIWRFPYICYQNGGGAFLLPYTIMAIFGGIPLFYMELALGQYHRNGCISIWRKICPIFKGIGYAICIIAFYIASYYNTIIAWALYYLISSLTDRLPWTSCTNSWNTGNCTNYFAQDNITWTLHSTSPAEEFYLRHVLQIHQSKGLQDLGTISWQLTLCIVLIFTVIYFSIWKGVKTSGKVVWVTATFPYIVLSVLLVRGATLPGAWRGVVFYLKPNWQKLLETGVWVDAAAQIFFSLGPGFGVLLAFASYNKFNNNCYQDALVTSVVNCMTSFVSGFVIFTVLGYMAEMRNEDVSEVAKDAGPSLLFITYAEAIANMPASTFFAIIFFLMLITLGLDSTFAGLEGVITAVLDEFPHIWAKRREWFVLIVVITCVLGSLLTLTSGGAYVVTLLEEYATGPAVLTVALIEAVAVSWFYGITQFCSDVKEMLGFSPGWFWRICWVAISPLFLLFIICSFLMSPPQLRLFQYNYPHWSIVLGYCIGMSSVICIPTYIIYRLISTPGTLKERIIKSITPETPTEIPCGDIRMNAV
UniProt P23977, whole entry: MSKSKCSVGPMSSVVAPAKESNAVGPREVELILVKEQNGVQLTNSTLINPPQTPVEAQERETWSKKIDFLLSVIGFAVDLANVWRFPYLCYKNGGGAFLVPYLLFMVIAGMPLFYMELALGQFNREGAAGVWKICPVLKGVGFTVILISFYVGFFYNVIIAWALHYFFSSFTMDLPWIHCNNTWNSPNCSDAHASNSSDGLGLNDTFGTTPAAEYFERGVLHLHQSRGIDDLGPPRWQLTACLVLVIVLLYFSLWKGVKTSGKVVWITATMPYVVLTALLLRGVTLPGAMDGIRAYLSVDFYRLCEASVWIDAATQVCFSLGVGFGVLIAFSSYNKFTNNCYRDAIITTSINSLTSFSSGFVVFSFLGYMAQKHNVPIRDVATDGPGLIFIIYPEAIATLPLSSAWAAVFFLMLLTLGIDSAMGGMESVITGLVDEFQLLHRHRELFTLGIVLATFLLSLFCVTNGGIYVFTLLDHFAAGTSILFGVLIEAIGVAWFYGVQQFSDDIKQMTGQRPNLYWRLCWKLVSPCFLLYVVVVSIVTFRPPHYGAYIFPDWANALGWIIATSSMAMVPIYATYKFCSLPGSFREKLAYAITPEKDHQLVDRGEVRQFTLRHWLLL

The target of assay [1] is 5-hydroxytryptamine receptor 2A (Rattus norvegicus, UniProt P14842).
For assay [2], the target named is Sodium-dependent serotonin transporter (Rattus norvegicus, UniProt P31652).
Assay [3] concerns the target Norepinephrine transporter (Rattus norvegicus, UniProt Q9JIA2).
The target in assay [4] is Sodium-dependent dopamine transporter (Rattus norvegicus, UniProt P23977).

Each structure is given as a SMILES string. pKi: −log10 of the molar value. Structures can show the parent of a compound that is named as a salt.

Compound `CN(C)CCCC1(c2ccc(F)cc2)OCc2cc(C#N)ccc21` (centres undefined) [CITALOPRAM HYDROBROMIDE] showed a pKi in assay [1] of 5.02.

The compound `COc1ccc2c(c1)CN(C)CC2c1ccc(Cl)c(Cl)c1` (centres undefined) had a pKi in assay [2] of 7.29.

With `CN[C@H]1C[C@H](c2ccc(Cl)c(Cl)c2)c2ccccc21` [CAS_96850-13-4], the pKi was 8.06 in assay [3] and 7.92 in assay [4].

Usually pKi stands for the negative decadic logarithm of the Ki, by convention in mol/L. The low end stands for a high Ki, the high end for a low Ki.
